## Measured affinities in a library of Ab-14 heavy chain variants

Target: peptide PDVDLGDISGINAS, taken from heptad repeat 2 (HR2) of SARS-CoV-2 spike.

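This is the validation round: designs drawn from the data on random variants, tested in the same kind of assay. Group labels follow the data file (Ctrl: baseline library sampled from a position-specific scoring matrix, with some repeated check sequences; Rand: our label for a block that the file lists under HC and that is probably the random mutants of the ten best first-round binders; En: ensemble of fine-tuned language models; GP: Gaussian process model; GPLM: also part of the Gaussian process libraries; HC: hill climbing; Gen: genetic algorithm; Gibbs: Gibbs sampling; a sequence that several methods proposed may carry one label only). Affinity was read by AlphaSeq, a pooled yeast mating assay with surface-displayed partners. After mating in shaken culture at 30 °C for 16 h, diploids were selected and their barcode pairs sequenced. Scores were corrected for input abundance and mapped to Kd with protein pairs of known affinity run in the same pool. Mating was done six times.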

Parent: Ab-14, a human scFv built as VH, a (GGGGS)3 linker, VL. Only the CDRs of the heavy chain vary.
VH: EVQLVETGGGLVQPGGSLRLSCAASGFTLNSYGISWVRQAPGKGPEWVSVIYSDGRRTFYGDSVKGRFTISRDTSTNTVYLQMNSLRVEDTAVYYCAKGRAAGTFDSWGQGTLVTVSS
VL: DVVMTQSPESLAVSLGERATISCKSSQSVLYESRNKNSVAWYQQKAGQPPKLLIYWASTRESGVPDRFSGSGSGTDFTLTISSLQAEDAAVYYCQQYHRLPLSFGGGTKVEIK

Variants are written as CDR1, CDR2 and CDR3 of the heavy chain (limits as in the source). Parent: GFTLNSYGIS, VIYSDGRRTFYGDSVK, GRAAGTFDS. Values are log10 of the apparent Kd in nM; lower means stronger binding. Averages over replicates are reported, and they cover detected replicates only. A pair that was not seen in any replicate is written "no signal"; this usually means weak binding, but a binder can also be missed. Values of this round are not directly comparable with the first-round values of the same sequences. The authors' rule: three or more of the six replicates give a measured affinity, fewer mean a poor binder. Background: pairings of all heavy chain designs with three empty control strains gave a value in 1% of cases (median 2.08, 5th percentile 0.84). Values in that range, when seen in few replicates, are hard to tell from nonspecific mating.

CDR-H1	CDR-H2	CDR-H3	group	log10 Kd (nM), mean	replicates with signal
GFNLNSYGIS	VIYSDGRRTFYGDMVK	GRTAGTFDS	GP_Gen	1.11	2 of 6
GFSLNDYGIS	VIYSDGRRTFYADSVK	GRAAGTFDS	GPLM_Gen	-0.06	6 of 6
GFDLNEYGIS	VIYADGRRTFYSDSVK	GAVAGTFDA	En_HC	-0.92	6 of 6
GFDLNEYGIS	VIYADGRRTFYSDSVK	GQVAGTFNV	En_HC	-0.62	6 of 6
GFALNEYGIS	VIYADGKRQVYANKVK	GNQTGTFDI	En_Gibbs	no signal	0 of 6
GFDLDEYGIS	VIYADGRRTFYQDSVK	GQNAGTFDV	En_HC	-0.97	6 of 6
GFTLNDYGIS	VIYSDGRRTQYIDSVK	GRTAGTFDS	GPLM_HC	0.13	4 of 6
GFALNEYGIS	VIYSDGRRTFYGDSVK	GRMAGTFDS	GP_Gen	-0.31	6 of 6
GFTLNEYGIS	VIYSDGFRTFYGDSVK	GRAAGTFDS	Ctrl	0.82	6 of 6
GFDLNEYGIS	VIYADGKRTFYADSVK	GQNAGTFDI	En_Gen	-0.37	6 of 6
GFTLYSYGIS	VIYADGDRTFYGDHVK	GRAAGTNKS	Rand	no signal	0 of 6
GFDLNDYGIS	VIYADGMRTAYIDSVK	GEVAGTFDS	En_HC	-0.41	6 of 6
GFNLDEYGIS	VIYADGMRTAYADSVK	GENAGTFDI	En_Gen	0.51	6 of 6
GFDLNEYGIS	VIYADGKRTAYADNVK	GETAGTFDQ	En_Gen	-0.84	6 of 6
GFDLNEYGIS	VIYADGRRTAYIDSVK	GANAGTFDV	En_HC	-0.39	6 of 6
GETLNSYGIS	VIYSDGRRTFYGDSVK	GRAAGTFDV	Ctrl	3.19	2 of 6
GFDLDEYGIS	VIYADGRRTAYADSVK	GETAGTFDT	En_Gen	-0.37	6 of 6
GFTLNEYGIS	VIYSDGRRTFYDDSVK	GQLAGTFDS	GPLM_HC	0.06	6 of 6
GFTNNDYGIS	VIYSDGRRTFYGDSVK	GRSAGTFDQ	Ctrl	no signal	0 of 6
GFTINDYGIS	VIYSDGRCTFYGDDVK	GRAAGTFDS	Ctrl	no signal	0 of 6
GFDLLEYGIS	VIYADGQRVAYKNNVK	GKNGAFFSN	En_Gibbs	-0.13	6 of 6
GFNLNEYGIS	VIYADGRRTFYADSVK	GEAAGTFDF	En_HC	0.27	6 of 6
GLDLESYGIS	VIYADGRRKAYHDSVK	GTNGGVSFV	En_Gibbs	no signal	0 of 6
GFTLNSYGIS	VIYADGERTFYGDSVK	GRNAGTFDG	Ctrl	1.42	6 of 6
GFDLNTYGIS	VIYSDGRRTFYGDSVK	GEAAGTFDS	GPLM_Gibbs	0.40	6 of 6
GFTLNSYGIS	VIYSDGKRTFYIDSVK	GRVAGTFDS	GPLM_Gen	0.40	1 of 6
GFQLNDYGIS	VIYSDGRRTFYIDTVK	GKAAGTFDS	GP_HC	1.87	2 of 6
GFNLNSYGIS	VIYSDGRRTFYVDSVK	GWTAGTFDS	GP_Gen	1.43	5 of 6
GFLIDEFGIS	VIYADGKRTSYSDTVK	GQLGNAFDL	En_Gibbs	no signal	0 of 6
GFSLNEYGIS	VIYSDGRRTFYKDSVK	GRTAGTFDT	GP_Gen	-0.34	6 of 6
GFDLNEYGIS	VIYADGVRTVYSDSVK	GNVAGTFDS	En_HC	-0.52	6 of 6
GFSLNDYGIS	VIYSDGRRTFYGDSVK	GRIAGTFDS	GPLM_Gen	0.24	6 of 6
GFTLNSYGIS	VIYSDGRRTFYGDSVK	GRANDTFDT	Ctrl	no signal	0 of 6
GFTLNSYGIS	VIYSDGRRTFYTDSVK	DRADGTFDL	Ctrl	no signal	0 of 6
GFDLSEYGIS	VIYADGRRTFYTDSVK	GENAGTFDV	En_HC	-0.54	6 of 6
GFDLNSYGIS	VIYSDGRRTFYGDSVK	GRAAGRFWS	GP_HC	0.14	6 of 6
GFALNSYGIS	VIYSDGRRTFYGDSVK	GRCAGTFDS	Ctrl	no signal	0 of 6
GFQLNSYGIS	VIYSDGRRTFYADSVK	GQEAGTFDS	GPLM_Gen	0.40	6 of 6
GKDIEEYGIS	VIYADGMRQAYADSVK	GQVAGSGKF	En_Gibbs	1.90	1 of 6
GFQLNEYGIS	VIYSDGRRTFYGDAVK	GRAAGTFDS	GP_HC	0.12	6 of 6
GFELNSYGIS	VIYADGRRTFYGDSVK	GEAAGTFDK	GP_Gen	-0.34	6 of 6
GFDLAEYGIS	VIYADGQRKSYANSFK	GRLSGTNIM	En_Gibbs	1.45	1 of 6
GFTLNEYGIS	VIYSDGIRTFYGDSVK	GRAAGTFVS	GPLM_HC	no signal	0 of 6
GFDLNSYGIS	VIYSDGRRTFYGDSVK	GEAAGTFDD	GPLM_Gen	0.05	6 of 6
GFTLNSYGIS	VIYSDGRRTFYGDSVR	GRCEGTFDS	Ctrl	no signal	0 of 6
GFDLDEYGIS	VIYADGKRTAYADSVK	GNEAGTFDM	En_Gen	0.13	6 of 6
GFDLNEYGIS	VIYADGQRTAYADSVK	GQVAGTFDI	En_Gen	-0.69	6 of 6
GFSLDEYGIS	VIYADGRRTFYADSVK	GNSAGTFDT	En_HC	0.63	6 of 6
WFSLNEYGIS	VIYSDGRRTFYGDSVK	GRTAGTFDS	GP_Gen	1.30	1 of 6
GFTLNDYGIS	VIYSDGRRTFYSDSVK	GRQAGTFDS	GPLM_Gen	-0.06	6 of 6
GFNLNEYGIS	VIYADGRRTFYSDSVK	GENAGTFDS	En_HC	-0.22	6 of 6
GFTLNEYGIS	VIYSDGRRTFYGDSVK	GRHAGTFIS	GPLM_HC	no signal	0 of 6
GFELNSYGIS	VIYSDGRRTFYSDSVK	GREAGTFDS	GP_Gen	0.34	6 of 6
GFDLNEYGIS	VIYADGQRTAYSDSVK	GNEAGTFDV	En_Gen	-0.29	6 of 6
GFDLNEYGIS	VIYADGRRTYYADSVK	GNVAGTFDL	En_Gen	-0.71	6 of 6
GFTLNSYGIS	VIYSDGRRTFYKDSVK	GRATGFFDW	Ctrl	no signal	0 of 6
GFDLNSYGIS	VIYSDGRRTFYGDSVK	GNAAGWFNN	Rand	no signal	0 of 6
GFDLNSYGIS	VIYSDGRRTFYGDSVK	GNTAGTFDD	GP_Gibbs	0.24	6 of 6
KFTLNNYGIS	VIYADGRRTFYGDSVK	GRAAGTSDS	Ctrl	no signal	0 of 6
GFSLNEYGIS	VIYSDGRRTFYCDSVK	GTAAGTFDR	GP_HC	1.00	6 of 6
GFTLNDYGIS	VIYSDGRRTFYGDSVK	GRAAGTFTI	GP_HC	0.04	6 of 6
GFDLDEYGIS	VIYADGRRTAYADDVK	GNVAGTFDV	En_Gen	0.43	6 of 6
GFSLNEYGIS	VIYSDGRRTFYMDSVK	GRNAGTFDS	GP_HC	0.01	6 of 6
GFTLNSYGIS	VIYSDGRRTFYGDSVK	GRAALTFDS	Ctrl	0.71	1 of 6
GFTLNEYGIS	VIYADGRRTFYGDSVK	GRLAGTFDS	GP_HC	-0.23	6 of 6
GFDLNEYGIS	VIYADGVRTAYADSVK	GNTAGTFDI	En_Gen	-0.18	6 of 6
GFDLEEYGIS	VIYADGSRTSYQESVK	GLVGGMLDV	En_Gibbs	1.89	2 of 6
GFTLNEYGIS	VIYSIGRRTFYTDSVK	GRFAGTFDS	Rand	no signal	0 of 6
GFHLDEYGIS	VIYADGLRYHYANSVK	GEMAGTFTT	En_Gibbs	no signal	0 of 6
GFTLNSYGIS	VIYSDGRRTFYGDSVK	GRAAGTFDY	Ctrl	2.04	3 of 6
GFTLNSYGIS	VIYSDGRRTFYGDSVK	GRAAGTFDQ	Ctrl	2.03	5 of 6
GFDLNEYGIS	VIYADGMRTAYADSVK	GENAGTFDV	En_Gen	-0.15	4 of 6
GFDLNEYGIS	VIYADGMRTAYADDVK	GNNAGTFDI	En_Gen	-0.07	6 of 6
GFKLNSYGIS	VIYSDGRRTFYADSVK	GRTAGTFDS	GPLM_Gen	0.88	3 of 6

Repeated from above, the 5 best binders with a signal in all replicates:

CDR-H1	CDR-H2	CDR-H3	group	log10 Kd (nM), mean	replicates with signal
GFDLDEYGIS	VIYADGRRTFYQDSVK	GQNAGTFDV	En_HC	-0.97	6 of 6
GFDLNEYGIS	VIYADGRRTFYSDSVK	GAVAGTFDA	En_HC	-0.92	6 of 6
GFDLNEYGIS	VIYADGKRTAYADNVK	GETAGTFDQ	En_Gen	-0.84	6 of 6
GFDLNEYGIS	VIYADGRRTYYADSVK	GNVAGTFDL	En_Gen	-0.71	6 of 6
GFDLNEYGIS	VIYADGQRTAYADSVK	GQVAGTFDI	En_Gen	-0.69	6 of 6

Reference: Li et al. 2023, doi:10.1038/s41467-023-39022-2. File: FLAb, binding data.